# From ChEMBL document CHEMBL1124682, “Quaternary salts of 2-[(hydroxyimino)methyl]imidazole. 3. Synthesis and evaluation of (alkenyloxy)-, (alkynyloxy)-, and (aralkyloxy)methyl quaternarized 2-[(hydroxyimino)methyl]-1-alkylimidazolium halides as reactivators and therapy for soman intoxication” (1989)
# Sequences of proteins named here, by UniProt entry; tags and fusion partners are left off. Residues count along the entry.
# UniProt P22303, 32-614 limits assumed: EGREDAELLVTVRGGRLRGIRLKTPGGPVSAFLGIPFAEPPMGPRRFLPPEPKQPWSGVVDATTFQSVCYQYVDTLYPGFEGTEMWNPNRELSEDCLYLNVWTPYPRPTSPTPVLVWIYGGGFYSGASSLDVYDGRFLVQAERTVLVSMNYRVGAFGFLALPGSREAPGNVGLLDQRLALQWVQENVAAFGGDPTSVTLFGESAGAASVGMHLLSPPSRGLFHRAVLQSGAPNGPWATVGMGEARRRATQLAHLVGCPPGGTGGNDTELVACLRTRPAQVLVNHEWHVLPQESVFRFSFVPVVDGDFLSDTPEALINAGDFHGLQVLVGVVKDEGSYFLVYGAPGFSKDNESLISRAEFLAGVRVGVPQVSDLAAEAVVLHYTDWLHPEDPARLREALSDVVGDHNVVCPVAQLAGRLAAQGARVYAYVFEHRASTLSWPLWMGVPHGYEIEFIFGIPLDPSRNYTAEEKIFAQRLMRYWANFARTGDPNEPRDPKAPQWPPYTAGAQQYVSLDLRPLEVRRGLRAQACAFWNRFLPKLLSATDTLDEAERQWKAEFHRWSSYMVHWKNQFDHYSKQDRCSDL
# Target: T1, Acetylcholinesterase (Homo sapiens, UniProt P22303)
# Test: Concentration of compound that reversibly inhibits acetylcholinesterase (AChE) by 50 %
row,Structure (SMILES),IC50 [µM]
1,C#CCCOC[n+]1ccc(/C=N/O)cc1,96.5
2,C#CCCCC[n+]1ccn(C)c1/C=N/O,8.5

# Target: T1, Acetylcholinesterase
# Test: Reversible inhibition of acetylcholinesterase (AChE) by 50 % in human erythrocytes
row,Structure (SMILES),IC50 [µM]
1,C#CCCCOC[n+]1ccn(C)c1/C=N/O,27.9
2,C#CCOC[n+]1ccn(C)c1/C=N/O,21.8
3,C#CC1(OC[n+]2ccn(C)c2/C=N/O)CCCC1,24.2
4,C#CC(CCC)OC[n+]1ccn(C)c1/C=N/O (stereo not given),8.27
5,C#CC(C)OC[n+]1ccn(C)c1/C=N/O (stereo not given),11.9
6,C#CCC(C)OC[n+]1ccn(C)c1/C=N/O (stereo not given),8.72
7,C#CC(CC)OC[n+]1ccn(C)c1/C=N/O (stereo not given),7.81
8,C#CC(C)(C)OC[n+]1ccn(C)c1/C=N/O,24.2
9,C#CCC(CCC)OC[n+]1ccn(C)c1/C=N/O (stereo not given),5.21
10,C#CC(C)C(C)OC[n+]1ccn(C)c1/C=N/O (stereo not given),12.7
11,C#CC1CCCCC1OC[n+]1ccn(C)c1/C=N/O (stereo not given),20.3
12,CC#CCCOC[n+]1ccn(C)c1/C=N/O,76.8
13,C#CCCOC[n+]1ccn(C)c1/C=N/O,14.5
